# Literature values in patent publication US12599600B2, “Compositions and methods for preventing and treating headache through enhancing 2-arachydonyl glyerol activity” (Arizona Board of Regents on Behalf of the University of …, priority 2020, dated 2026).
# The chains behind the UniProt entries cited, without tags or fusion partners.
# UniProt P34972, whole entry: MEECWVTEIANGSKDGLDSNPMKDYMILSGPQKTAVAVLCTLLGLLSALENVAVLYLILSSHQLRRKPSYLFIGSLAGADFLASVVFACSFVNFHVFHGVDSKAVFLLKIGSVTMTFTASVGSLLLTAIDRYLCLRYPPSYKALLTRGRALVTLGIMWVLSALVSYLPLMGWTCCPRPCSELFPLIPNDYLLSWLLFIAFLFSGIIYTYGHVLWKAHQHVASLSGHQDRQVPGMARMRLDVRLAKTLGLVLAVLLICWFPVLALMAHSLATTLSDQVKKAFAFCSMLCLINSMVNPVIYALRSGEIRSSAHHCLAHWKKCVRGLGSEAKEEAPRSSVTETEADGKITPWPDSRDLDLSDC
# pEC50, pKi: −log10 of the molar value.
# Key:
# CB2R [1] = target: T1, CB2R (Homo sapiens, UniProt P34972); settings: cited from earlier work
# CB2R [2] = target: T1, CB2R; settings: cited from earlier work; remark: listed apart in the source
smiles,measurement,setting,value
"CCCCC/C=C\C/C=C\C/C=C\C/C=C\CCCC(=O)NCCO [AEA, anandamide]",pKi,CB2R [1],5.71 to 6.55
same,pEC50,CB2R [2],4.80
